Measured values published in patent US8563565B2, “Pyrazoloquinoline derivatives” (Eisai R&D Management Co., Ltd., priority 2011, dated 2013).
pIC50: −log10 of the molar value.

Chains of the proteins cited; added tags and fusions are not shown.
UniProt O76083, whole entry: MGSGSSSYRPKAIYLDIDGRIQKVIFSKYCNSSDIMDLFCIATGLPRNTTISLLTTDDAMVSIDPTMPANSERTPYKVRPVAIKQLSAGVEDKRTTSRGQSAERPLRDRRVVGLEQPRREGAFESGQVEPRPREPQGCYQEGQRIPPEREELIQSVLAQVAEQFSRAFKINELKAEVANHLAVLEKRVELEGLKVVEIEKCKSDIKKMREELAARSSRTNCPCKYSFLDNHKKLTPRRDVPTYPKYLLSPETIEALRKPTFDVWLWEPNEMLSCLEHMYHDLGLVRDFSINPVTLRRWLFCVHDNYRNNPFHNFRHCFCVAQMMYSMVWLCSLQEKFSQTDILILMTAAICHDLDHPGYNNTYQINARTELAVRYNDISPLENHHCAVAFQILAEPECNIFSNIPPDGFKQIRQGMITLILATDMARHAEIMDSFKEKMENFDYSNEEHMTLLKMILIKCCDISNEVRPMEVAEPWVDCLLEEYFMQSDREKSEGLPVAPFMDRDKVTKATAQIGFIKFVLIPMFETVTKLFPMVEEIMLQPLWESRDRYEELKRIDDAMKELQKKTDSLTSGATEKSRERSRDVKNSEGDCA

Target: human recombinant PDE9 protein (Homo sapiens, UniProt O76083)
Assay: PDE9 inhibitory activity test (measurement of PDE9 inhibitory action, [3H]-cGMP)
Type: biochemical
Details: read-out: PDE9 IC50; human recombinant PDE9, 30° C., 10 min

Row | SMILES | pIC50
1 | Cc1cccc(C)c1-c1ccc2c(c1)[nH]c(=O)c1cnn(C3CCOC3)c12 (single isomer, unassigned) | 7.55
2 | COc1cc(C)c(-c2ccc3c(c2)[nH]c(=O)c2cnn(C4CCOC4)c23)c(CF)n1 (single isomer, unassigned) | 7.15
